Measurements: ChEMBL document CHEMBL5579887, “Structure-Activity Relationship Studies of Substituted 2-Phenyl-1,2,4-triazine-3,5(2H,4H)-dione Analogues: Development of Potent eEF2K Degraders against Triple-Negative Breast Cancer” (J Med Chem, 2024)
Active and inactive are the calls of the source. The calls are words filed in the database; no cut-off is given here.

Key:
[1] = Toxicity in BALB/c mouse assessed as effect on heart size at 5 to 10 mg/kg, measured by H and E staining based analysis; type: organism-based; conditions: in vivo, dose 5-10 mg/kg
[2] = Toxicity in BALB/c mouse assessed as effect on liver size at 5 to 10 mg/kg, measured by H and E staining based analysis; type: organism-based; conditions: in vivo, dose 5-10 mg/kg
[3] = Hepatotoxicity in BALB/c mouse xenografted with human MDA-MB-231 cells assessed as effect on serum AST level at 5 to 10 mg/kg measured after 24 hrs by biochemical analysis; type: toxicity, organism-based; conditions: in vivo, dose 5-10 mg/kg
[4] = Toxicity in BALB/c mouse assessed as effect on liver weight at 5 to 10 mg/kg, measured by H and E staining based analysis; type: organism-based; conditions: in vivo, dose 5-10 mg/kg
[5] = Toxicity in BALB/c mouse assessed as effect on body weight at 5 to 10 mg/kg, measured by H and E staining based analysis; type: organism-based; conditions: in vivo, dose 5-10 mg/kg
[6] = Toxicity in BALB/c mouse assessed as effect on kidney size at 5 to 10 mg/kg, measured by H and E staining based analysis; type: organism-based; conditions: in vivo, dose 5-10 mg/kg
[7] = Toxicity in BALB/c mouse assessed as effect on kidney weight at 5 to 10 mg/kg, measured by H and E staining based analysis; type: organism-based; conditions: in vivo, dose 5-10 mg/kg
[8] = Volume of distribution in female BALB/c mouse at 5 mg/kg, ip measured after 24 hrs by LC/MS analysis; type: ADME, organism-based; conditions: in vivo
[9] = Renal toxicity in BALB/c mouse xenografted with human MDA-MB-231 cells assessed as effect on serum creatinine level at 5 to 10 mg/kg measured after 24 hrs by biochemical analysis; type: organism-based; conditions: in vivo, dose 5-10 mg/kg
[10] = Toxicity in BALB/c mouse assessed as effect on spleen weight at 5 to 10 mg/kg, measured by H and E staining based analysis; type: organism-based; conditions: in vivo, dose 5-10 mg/kg
[11] = Clearance in female BALB/c mouse at 5 mg/kg, ip measured after 24 hrs by LC/MS analysis; type: ADME, organism-based; conditions: in vivo
[12] = Hepatotoxicity in BALB/c mouse xenografted with human MDA-MB-231 cells assessed as effect on serum CK level at 5 to 10 mg/kg measured after 24 hrs by biochemical analysis; type: toxicity, organism-based; conditions: in vivo, dose 5-10 mg/kg
[13] = Cmax in female BALB/c mouse at 5 mg/kg, iv measured after 24 hrs by LC/MS analysis; type: ADME, organism-based; conditions: in vivo
[14] = Toxicity in BALB/c mouse assessed as effect on heart weight at 5 to 10 mg/kg, measured by H and E staining based analysis; type: organism-based; conditions: in vivo, dose 5-10 mg/kg
[15] = Clearance in female BALB/c mouse at 5 mg/kg, iv measured after 24 hrs by LC/MS analysis; type: ADME, organism-based; conditions: in vivo
[16] = Clearance in female BALB/c mouse at 10 mg/kg, po measured after 24 hrs by LC/MS analysis; type: ADME, organism-based; conditions: in vivo
[17] = Toxicity in BALB/c mouse assessed as effect on lung weight at 5 to 10 mg/kg, measured by H and E staining based analysis; type: organism-based; conditions: in vivo, dose 5-10 mg/kg
[18] = Toxicity in BALB/c mouse assessed as effect on spleen size at 5 to 10 mg/kg, measured by H and E staining based analysis; type: organism-based; conditions: in vivo, dose 5-10 mg/kg
[19] = Hepatotoxicity toxicity in BALB/c mouse xenografted with human MDA-MB-231 cells assessed as effect on serum ALT level at 5 to 10 mg/kg measured after 24 hrs by biochemical analysis; type: organism-based; conditions: in vivo, dose 5-10 mg/kg
[20] = Renal toxicity in BALB/c mouse xenografted with human MDA-MB-231 cells assessed as effect on serum urea level at 5 to 10 mg/kg measured after 24 hrs by biochemical analysis; type: organism-based; conditions: in vivo, dose 5-10 mg/kg
[21] = Hepatotoxicity in BALB/c mouse xenografted with human MDA-MB-231 cells assessed as effect on serum LDH level at 5 to 10 mg/kg measured after 24 hrs by biochemical analysis; type: toxicity, organism-based; conditions: in vivo, dose 5-10 mg/kg
[22] = Volume of distribution in female BALB/c mouse at 10 mg/kg, po measured after 24 hrs by LC/MS analysis; type: ADME, organism-based; conditions: in vivo
[23] = Toxicity in BALB/c mouse assessed as effect on lung size at 5 to 10 mg/kg, measured by H and E staining based analysis; type: organism-based; conditions: in vivo, dose 5-10 mg/kg
[24] = Half life in female BALB/c mouse at 5 mg/kg, iv measured after 24 hrs by LC/MS analysis; type: ADME, organism-based; conditions: in vivo
[25] = biological target: T1, Eukaryotic elongation factor 2 kinase (Homo sapiens) (UniProt O00418); experiment: Inhibition of eEF2K (unknown origin) using NH 125 as inhibitor
T1 sequence (whole entry): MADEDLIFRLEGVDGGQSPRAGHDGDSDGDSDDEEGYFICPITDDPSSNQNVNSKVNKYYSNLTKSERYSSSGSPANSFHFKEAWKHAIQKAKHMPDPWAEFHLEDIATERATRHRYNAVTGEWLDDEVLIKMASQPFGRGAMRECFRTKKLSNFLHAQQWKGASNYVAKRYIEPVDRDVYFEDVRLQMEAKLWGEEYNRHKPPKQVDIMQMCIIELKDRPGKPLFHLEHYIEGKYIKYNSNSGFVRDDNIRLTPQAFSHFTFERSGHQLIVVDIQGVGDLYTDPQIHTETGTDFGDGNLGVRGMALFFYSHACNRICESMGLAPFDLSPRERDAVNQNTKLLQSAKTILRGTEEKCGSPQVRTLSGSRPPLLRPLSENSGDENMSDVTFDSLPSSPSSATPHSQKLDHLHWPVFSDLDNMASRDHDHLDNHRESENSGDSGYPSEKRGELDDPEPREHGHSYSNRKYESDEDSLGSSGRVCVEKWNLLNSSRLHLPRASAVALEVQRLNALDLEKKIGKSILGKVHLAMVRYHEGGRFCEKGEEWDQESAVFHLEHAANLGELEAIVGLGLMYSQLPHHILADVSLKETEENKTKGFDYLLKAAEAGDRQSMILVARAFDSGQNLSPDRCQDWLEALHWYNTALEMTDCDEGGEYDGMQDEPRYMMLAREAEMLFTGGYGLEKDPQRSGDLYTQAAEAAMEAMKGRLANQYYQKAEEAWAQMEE

MDA-MB-231 = experiment: In vivo antitumor activity against human MDA-MB-231 cells xenografted in female nude mouse assessed as tumor growth inhibition at 10 mg/kg, ip administered every other day relative to control; type: functional
[26] = biological target: T1, Eukaryotic elongation factor 2 kinase (Homo sapiens); experiment: Inhibition of eEF2K (unknown origin)

Cc1ccc(-n2nc(C(=O)N3CCCCC3)c(=O)n(Cc3ccccc3)c2=O)cc1C
Activity [1]: Non-Toxic | Activity [2]: Non-Toxic | Activity [3]: Non-Toxic | Activity [4]: Non-Toxic | Activity [5]: Non-Toxic | Activity [6]: Non-Toxic | Activity [7]: Non-Toxic | Vd [8]: 51.9 L/kg | Activity [9]: Non-Toxic | Activity [10]: Non-Toxic | CL [11]: 288 mL/min/kg | Activity [12]: Non-Toxic | Cmax [13]: 549.3 ng/mL | Activity [14]: Non-Toxic | CL [15]: 96.7 mL/min/kg | CL [16]: 6518 mL/min/kg | Activity [17]: Non-Toxic | Activity [18]: Non-Toxic | Activity [19]: Non-Toxic | Activity [20]: Non-Toxic | Activity [21]: Non-Toxic | Vd [22]: 192.8 L/kg | Activity [23]: Non-Toxic | t1/2 [24]: 5.9 h

CCCCCCCCCCCCCCCC[n+]1ccn(Cc2ccccc2)c1C
inhibition [25]: Active

CC(=O)O[C@H]1C(=O)[C@@]2(C)[C@H]([C@H](OC(=O)c3ccccc3)[C@]3(O)C[C@H](OC(=O)[C@H](O)[C@@H](NC(=O)c4ccccc4)c4ccccc4)C(C)=C1C3(C)C)[C@]1(OC(C)=O)CO[C@@H]1C[C@@H]2O [PACLITAXEL]
Activity (MDA-MB-231): Active

O=C(/C=C/c1cccc(C(F)(F)F)c1)c1cc2ccccc2oc1=O
inhibition [26]: Active
